Reference: PMC3319004 (Science Translational Medicine, 2011)

Legend:
ALK-dependent NSCLC = details: cited from earlier work
[1] = tested on: NB1 xenografts with amplified, overexpressed wild-type ALK; assay: In vivo tumor growth inhibition, NB1 xenografts; details: 100mg/kg/day oral gavage for 4 weeks

C[C@@H](Oc1cc(-c2cnn(C3CCNCC3)c2)cnc1N)c1c(Cl)ccc(F)c1Cl [crizotinib]
safety in phase I study (ALK-dependent NSCLC; humans): safety and tolerability in humans
tumor response in phase I study (ALK-dependent NSCLC; patients with ALK-dependent NSCLC): tumor shrinkage or stable disease in most patients
tumor response [1]: complete tumor regression
